Reference: ChEMBL document CHEMBL3044873, “Aryl N, N-Dimethylcarbamates, Synergists for Organophosphorus Insecticides against Organophos-phorusresistant Rice Stem Borers” (J Pestic Sci, 1990)

Tested on: Chilo suppressalis
Experiment: Potentiation of fenitrothion-induced insecticidal activity against OP-resistant Chilo suppressalis Hata-f (rice stem borer) assessed as synergistic ratio at 1:10 fenitrothion to compound ratio relative to fenitrothion alone

Compound: CN(C)C(=O)Oc1cccnc1
- fold change (FC): 9.1
